Article PMC10631289 (Bioorganic & medicinal chemistry letters, 2023)
Entries after “also recorded” stand apart in the source; their conditions may differ.

Sequences of proteins named here, by UniProt entry; tags and fusion partners are left off.
UniProt P46095, whole entry R220Y: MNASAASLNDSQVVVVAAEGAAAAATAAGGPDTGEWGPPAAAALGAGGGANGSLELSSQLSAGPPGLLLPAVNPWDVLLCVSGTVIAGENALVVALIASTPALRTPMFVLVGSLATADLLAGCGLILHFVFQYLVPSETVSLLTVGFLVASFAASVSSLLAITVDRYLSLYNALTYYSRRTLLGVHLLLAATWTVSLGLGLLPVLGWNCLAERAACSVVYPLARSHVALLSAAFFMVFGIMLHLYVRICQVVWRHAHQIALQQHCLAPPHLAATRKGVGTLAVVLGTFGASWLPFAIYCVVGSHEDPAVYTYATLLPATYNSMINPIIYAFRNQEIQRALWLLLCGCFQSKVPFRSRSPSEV

What was measured:
GPR6 R220Y mutant = GPR6 R220Y mutant (Homo sapiens, UniProt P46095, R220Y); assay: cAMP accumulation, GPR6 R220Y mutant receptor; assay type: cell-based
hGPR12 = molecular target: T1, hGPR12 (Homo sapiens, UniProt P47775); details: HEK GPR12 cell line
T1 sequence (P47775 1-334): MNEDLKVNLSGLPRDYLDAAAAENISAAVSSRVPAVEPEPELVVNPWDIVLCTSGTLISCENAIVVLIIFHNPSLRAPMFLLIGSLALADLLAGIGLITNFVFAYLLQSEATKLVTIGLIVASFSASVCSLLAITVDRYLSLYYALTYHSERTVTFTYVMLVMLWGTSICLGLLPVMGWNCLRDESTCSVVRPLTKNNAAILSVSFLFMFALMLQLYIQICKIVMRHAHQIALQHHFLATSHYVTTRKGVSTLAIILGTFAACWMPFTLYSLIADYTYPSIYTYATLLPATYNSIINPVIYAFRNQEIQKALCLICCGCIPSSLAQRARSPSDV

hGPR6 = hGPR6 (Homo sapiens, UniProt P46095); details: HEK GPR6 cell line
HEK parental cell line = assay: cAMP accumulation in HEK parental cell line; details: up to 10 μM

For `FC(F)(F)Oc1ccc2c(c1)[I+]c1ccccc1-2` [Compound 32], the “activity in GPR6 R220Y mutant” value (GPR6 R220Y mutant) was “did not confer activity; also recorded: no activity”, the “increase of cAMP response over basal levels” value (hGPR12) was “but not GPR6, GPR12, or in HEK293 cells alone” and the “increase of cAMP response over basal levels” value (hGPR6) was “but not GPR6, GPR12, or in HEK293 cells alone”. For the same compound, the “increase of cAMP” value (HEK parental cell line) was “Neither compound increased cAMP; also recorded: but not GPR6, GPR12, or in HEK293 cells alone”.
